Measurements published in ChEMBL document CHEMBL4665801, “Pyrazole-Based Lactate Dehydrogenase Inhibitors with Optimized Cell Activity and Pharmacokinetic Properties” (J Med Chem, 2020).

Legend:
[1] = Selectivity ratio of IC50 for inhibition of porcine heart MDH to IC50 for inhibition of recombinant human LDHA
[2] = Selectivity ratio of IC50 for inhibition of porcine heart MDH to IC50 for inhibition of recombinant human LDHB

| SMILES | Ratio IC50 [1] | Ratio IC50 [2] |
| --- | --- | --- |
| NS(=O)(=O)c1ccc(Cc2c(-c3ccc(F)c(C#CC4CCNCC4)c3)nn(-c3nc(C(=O)O)cs3)c2CC2CC2)cc1F | > 2500 | > 2500 |
| C#Cc1cc(-c2nn(-c3nc(C(=O)O)cs3)c(CC3CC3)c2Cc2ccc(S(N)(=O)=O)c(F)c2)ccc1F | > 2500 | > 2500 |
| NS(=O)(=O)c1ccc(Cc2c(-c3cccc(-c4ccccc4)c3)nn(-c3nc(C(=O)O)cs3)c2CC2CC2)cc1F | > 2500 | > 2500 |
| NS(=O)(=O)c1ccc(Cc2c(-c3ccc(F)c(C#CCN4CCOCC4)c3)nn(-c3nc(C(=O)O)cs3)c2CC2CC2)cc1F | > 2500 | > 2500 |
| NS(=O)(=O)c1ccc(Cc2c(-c3cccc(-c4ccccc4)c3)nn(-c3nc(C(=O)O)cs3)c2C2CC2(F)F)cc1 (stereo not drawn) | > 2500 | > 2500 |
| CCCCC#Cc1cc(-c2nn(-c3nc(C(=O)O)cs3)c(CC3CC3)c2Cc2ccc(S(N)(=O)=O)c(F)c2)ccc1F | > 2500 | > 2500 |
| Cc1ncc(C#Cc2cccc(-c3nn(-c4nc(C(=O)O)cs4)c(CCC4CC4)c3Cc3ccc(S(N)(=O)=O)c(F)c3)c2)s1 | > 2500 | > 2500 |

Further lines, results first:

| Ratio IC50 [1] | Ratio IC50 [2] | SMILES |
| --- | --- | --- |
| > 2500 | > 2500 | CC(C)(C)/C=C/c1cc(-c2nn(-c3nc(C(=O)O)cs3)c(CC3CC3)c2Cc2ccc(S(N)(=O)=O)c(F)c2)ccc1F |
| > 2500 | > 2500 | NS(=O)(=O)c1ccc(Cc2c(-c3cccc(C#Cc4ccc(C5CCC5)s4)c3)nn(-c3nc(C(=O)O)cs3)c2CC2CC2)cc1F |
| > 2500 | > 2500 | Cc1cnc(C#Cc2cccc(-c3nn(-c4nc(C(=O)O)cs4)c(CC4CC4)c3Cc3ccc(S(N)(=O)=O)c(F)c3)c2)s1 |
| > 2500 | > 2500 | CCC#Cc1cc(-c2nn(-c3nc(C(=O)O)cs3)c(CC3CC3)c2Cc2ccc(S(N)(=O)=O)c(F)c2)ccc1F |
| > 2500 | > 2500 | Cc1cc(C#Cc2cccc(-c3nn(-c4nc(C(=O)O)cs4)c(CC4CC4)c3Cc3ccc(S(N)(=O)=O)c(F)c3)c2)cs1 |
| > 2500 | > 2500 | NS(=O)(=O)c1ccc(Cc2c(-c3cccc(C#CC4CCCC4)c3)nn(-c3nc(C(=O)O)cs3)c2CC2CC2)cc1F |
| > 2500 | > 2500 | Cc1cnc(C#Cc2cc(-c3nn(-c4nc(C(=O)O)cs4)c(CC4CC4)c3Cc3ccc(S(N)(=O)=O)c(F)c3)ccc2F)s1 |
